This series can be described thus: Chemical stability at 60° C.-37% RH (amidine impurities by HPLC-MS). The procedure:
Crystalline and chemical stability at 60° C.-37% RH: saxagliptin crystalline form I and the known saxagliptin crystalline forms H-1, H2-1 were stored at 60° C. with 37% relative humidity (RH). The samples were analyzed by XRPD and HPLC-MS to check crystalline transformation and chemical degradation.
Crystalline and chemical stability at 60° C.—37% RH: Saxagliptin crystalline forms H-1, H2-1 and A were stored at 60° C. with 37% RH. The samples were analyzed by XRPD and HPLC-MS to check crystalline transformation and chemical degradation.

Regarding “salt of saxagliptin with glycolic acid (1:1) hydrate [Form A]”, the “Degradation rate / stability compared with free base H-1 and hydrochloride H2-1” value was “better stability”. Also, the “Δ variation amidine Impurities A and B % (HPLC-MS), impurity (A)” value (16 h (Table 7)) is reported as 0.1% (A). Moreover, for the setting “168 h (Table 7)”, the “Δ variation amidine Impurities A and B % (HPLC-MS), impurity (A)” value stood at 0.7%; the “Δ variation amidine Impurities A and B % (HPLC-MS), impurity (B)” value is 0.2%.

(Values after patent US20150087686A1, “CRYSTALLINE FORMS OF SAXAGLIPTIN” (priority 2012, published 2015).)
